Literature values, collected in US20140066523A1, “Drug Delivery Compositions And Methods Of Use” (ABYRX, Inc., priority 2011, published 2014).

Settings: from the literature (Jandacek 1991)

Which “Solubility of Solid in Oleic Acid @ 40° C.” value does the source give for Calcium Laurate here?
The value was 22.8%.
